Reference: article PMC11504268 (Antibiotics, 2024)

Conditions: individual parameters from population PK, elimination phase half-life, n = 12, median (IQR)
Experimental: The estimation of parameters, including fixed and random effects, was conducted using first-order conditional estimation with the interaction method. This enables modelling of the interaction between the IIV in PK parameters and the residual variability (RV) in measured concentrations. […] Each model adhered to first-order kinetics, except the zero-order infusion processes. Each PK parameter in the model was described by the equation θi = θ × exp (ηi), where θ denotes the typical value of the PK parameter, θi is the individual PK parameter value for each participant, and ηi is a random variable encapsulating IIV. We hypothesised that IIV is normally distributed, with a mean of zero and variance ω^2. RV was modelled as normally distributed with a mean of zero and a variance σ^2. Additionally, we evaluated additive, proportional, and combined additive-proportional error models. […] The variability in the final model predictions was analysed using the median and 95% confidence intervals from 2000 bootstrap replicates. […] Covariates were assessed for both their statistical and clinical relevance, taking into account demographic factors (such as gender, age, weight, height, body mass index, and body surface area) and biochemical markers (including serum protein, albumin, creatinine, and cystatin C levels). […]

SMILES: CN[C@H](CC(C)C)C(=O)N[C@H]1C(=O)N[C@@H](CC(N)=O)C(=O)N[C@H]2C(=O)N[C@H]3C(=O)N[C@H](C(=O)N[C@H](C(=O)O)c4cc(O)cc(O)c4-c4cc3ccc4O)[C@H](O)c3ccc(c(Cl)c3)Oc3cc2cc(c3O[C@@H]2O[C@H](CO)[C@@H](O)[C@H](O)[C@H]2O[C@H]2C[C@](C)(N)[C@H](O)[C@H](C)O2)Oc2ccc(cc2Cl)[C@H]1O [vancomycin]
- t1/2β, Median (IQR): 3.84 (3.63–4.26) h
